For orientation: IC50 means the concentration that inhibits the measured activity by half. A word on the Kd: it is the equilibrium constant for the complex coming apart.

Protein sequences, listed by entry. Tags and fused reporters are not part of them. Lines headed by an entry give the natural chain unless they say otherwise; changes in a name come on top.
UniProt O00370: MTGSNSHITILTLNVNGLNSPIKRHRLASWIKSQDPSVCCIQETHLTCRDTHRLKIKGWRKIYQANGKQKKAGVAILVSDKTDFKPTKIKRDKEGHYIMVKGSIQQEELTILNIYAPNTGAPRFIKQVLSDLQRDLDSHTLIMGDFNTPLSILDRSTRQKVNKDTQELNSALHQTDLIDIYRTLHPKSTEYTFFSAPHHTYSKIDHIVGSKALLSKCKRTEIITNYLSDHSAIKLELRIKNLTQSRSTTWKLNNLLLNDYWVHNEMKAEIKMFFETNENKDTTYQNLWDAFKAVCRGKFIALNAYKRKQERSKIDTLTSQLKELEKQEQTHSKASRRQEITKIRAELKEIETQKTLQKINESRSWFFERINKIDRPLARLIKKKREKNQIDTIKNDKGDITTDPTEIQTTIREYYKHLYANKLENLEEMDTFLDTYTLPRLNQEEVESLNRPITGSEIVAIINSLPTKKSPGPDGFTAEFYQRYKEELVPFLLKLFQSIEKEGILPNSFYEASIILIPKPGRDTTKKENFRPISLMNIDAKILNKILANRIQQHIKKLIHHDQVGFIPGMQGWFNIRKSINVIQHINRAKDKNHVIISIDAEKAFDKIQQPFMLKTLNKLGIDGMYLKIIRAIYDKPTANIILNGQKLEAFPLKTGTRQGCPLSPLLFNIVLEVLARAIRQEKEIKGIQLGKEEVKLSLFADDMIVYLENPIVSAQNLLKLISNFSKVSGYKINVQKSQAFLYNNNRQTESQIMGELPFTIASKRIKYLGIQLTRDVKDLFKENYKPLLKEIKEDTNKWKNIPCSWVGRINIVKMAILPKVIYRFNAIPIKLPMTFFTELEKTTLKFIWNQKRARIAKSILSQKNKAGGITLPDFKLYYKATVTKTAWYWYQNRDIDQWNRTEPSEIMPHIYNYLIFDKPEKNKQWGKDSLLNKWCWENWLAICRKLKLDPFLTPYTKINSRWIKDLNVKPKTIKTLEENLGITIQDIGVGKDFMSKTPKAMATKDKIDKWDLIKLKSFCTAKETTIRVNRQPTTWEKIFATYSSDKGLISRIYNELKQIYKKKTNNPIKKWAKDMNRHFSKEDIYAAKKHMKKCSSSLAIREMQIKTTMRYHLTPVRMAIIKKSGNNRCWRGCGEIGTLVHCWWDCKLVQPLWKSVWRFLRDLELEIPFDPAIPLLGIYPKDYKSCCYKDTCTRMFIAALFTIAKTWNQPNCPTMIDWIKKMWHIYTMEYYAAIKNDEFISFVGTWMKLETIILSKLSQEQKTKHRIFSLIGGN

Assay [1] has as its target L1 EN (Homo sapiens (Human), UniProt O00370). The experiment in a line: fluorescent oligonucleotide nicking assay. In kind it is biochemical.
Assay [2] concerns the target EN (L1 endonuclease domain), fluorescently labeled (Homo sapiens (Human), UniProt O00370). Kind of assay: spectral shift binding affinity measurement. The conditions noted are these: mean ± s.d., N.D. = binding not detected.
Assay [3] deals with human L1 EN domain (1-239) (Homo sapiens (Human), UniProt O00370). The experiment in a line: plasmid nicking L1 EN activity biochemical assay.

On to `COc1ccc2c(c1)C(=O)N(CCc1ccc(S(=O)(=O)NC(=O)NC3CCCCC3)cc1)C(=O)C2(C)C` [AD12, Gliquidone, reference compound], for which the “in vitro activity against EN (in words)” value in assay [1] (in vitro assays with purified EN) is reported as “relatively low efficacy in vitro”. Further, in assay [1] (mean ± s.d., 3 independent experiments, read-out: Biochemical assay: fluorescent oligonucleotide nicking assay IC50), the IC50 was 691 ± 142 µM. For the same molecule, the Kd in assay [2] came to 741 ± 394 µM. In assay [3], the “L1 EN inhibition in the biochemical assay (in words)” value is given as “inhibited L1 EN activity in the biochemical assay”. In assay [3] (plasmid nicking assay), the “Biochemical assay: concentration at maximum inhibition” value amounted to 750 μM FIG. 2K and the “Biochemical assay: maximum inhibition” value is 100% inhibition at.
